From BindingDB's records for 26043948

By UniProt entry, the sequences of proteins in these tests, tags left out. Residues count along the entry.
UniProt P22303, 32-614 limits assumed: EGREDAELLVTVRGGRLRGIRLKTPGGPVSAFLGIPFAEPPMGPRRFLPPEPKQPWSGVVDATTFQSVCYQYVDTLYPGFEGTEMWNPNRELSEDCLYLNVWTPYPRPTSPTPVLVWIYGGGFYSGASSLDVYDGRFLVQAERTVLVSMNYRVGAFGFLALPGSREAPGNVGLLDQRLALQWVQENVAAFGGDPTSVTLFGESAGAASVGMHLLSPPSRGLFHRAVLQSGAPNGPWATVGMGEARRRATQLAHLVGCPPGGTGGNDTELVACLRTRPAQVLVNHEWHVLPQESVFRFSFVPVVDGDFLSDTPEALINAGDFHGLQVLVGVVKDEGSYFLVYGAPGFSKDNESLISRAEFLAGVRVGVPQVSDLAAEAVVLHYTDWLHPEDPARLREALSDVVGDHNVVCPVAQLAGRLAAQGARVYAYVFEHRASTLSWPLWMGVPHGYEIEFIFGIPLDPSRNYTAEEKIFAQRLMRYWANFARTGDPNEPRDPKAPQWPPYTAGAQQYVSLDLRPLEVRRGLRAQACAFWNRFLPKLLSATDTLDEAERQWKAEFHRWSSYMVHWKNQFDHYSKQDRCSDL

Tests used:
[1] = target: T1, Acetylcholinesterase (Homo sapiens, UniProt P22303); experiment: ASSAY_NAME: ChEMBL_1507810 (CHEMBL3598674) DESCRIPTION: Reactivation of sarin-inhibited human acetylcholinesterase assessed as dissociation constant incubated for 60 mins using ATChI substrate by DTNB dye based UV-visible spectrophotometry
[2] = target: T1, Acetylcholinesterase; experiment: ASSAY_NAME: ChEMBL_1507812 (CHEMBL3598676) DESCRIPTION: Reactivation of VX-inhibited human acetylcholinesterase assessed as dissociation constant incubated for 60 mins using ATChI substrate by DTNB dye based UV-visible spectrophotometry

COc1ccc(-c2csc(NC(=O)C[n+]3cccc(/C=N/O)c3)n2)cc1
Kd [1]: 641 µM | Kd [2]: 114 µM
